Only a part is listed here, and it is no random draw. Calls of active or inactive are those of the source.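 How the source made its calls: active means compounds causing at least 50% loss of cell viability in the single-dose screen, relative to plate controls; inactive means the rest.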
experiment: viability loss with TRAIL in NB7+C8 cells, primary screen, TRAIL sensitizer project, cell-based, ATPlite luminescence (AID 624354); conditions: at 10 µM, active compounds read high

Row | SMILES | inhibition (viability loss, TRAIL sensitization)
1 | CCC(=O)N(c1ccccc1)C1(COC)CCN(CCc2cccs2)CC1 | inactive: 7.05%
2 | CCC(=O)N(c1ccccc1)C1(COC)CCN(CCn2nnn(CC)c2=O)CC1 | inactive: 1.04%

From PubChem BioAssay AID624354 (Sanford-Burnham Center for Chemical Genomics, 2012)
